This note sets out measurements from ChEMBL document CHEMBL1132850, “Design, synthesis and structure-activity relationship of a series of arginine aldehyde factor Xa inhibitors. Part 1: structures based on the (D)-Arg-Gly-Arg tripeptide sequence” (Bioorg Med Chem Lett, 2000).

pIC50: −log10 of the molar value.

The target in this assay is Prothrombin (Homo sapiens, UniProt P00734). Put plainly: Inhibitory activity against coagulation factor II (thrombin).

Consider `C[C@@H](NC(=O)C(CCCN=C(N)N)NC(=O)OC(C)(C)C)C(=O)N[C@H](C=O)CCCN=C(N)N` (single isomer, unassigned), for which the negative-log IC50 (pIC50) (commonly the negative decadic logarithm of the IC50, by convention in mol/L) is less than 5.00.
As for `CC(C)(C)OC(=O)NC(CCCN=C(N)N)C(=O)NCC(=O)N[C@H](C=O)CCCN=C(N)N` (single isomer, unassigned; 4), the pIC50 is 4.10.
